Results taken from ChEMBL document CHEMBL4382201 (J Med Chem, 2018).
≈ marks a conversion by molar mass, not a printed value.

Key:
[1] = system: CCRF-CEM; test: Growth inhibition of human CCRF-CEM cells after 48 hrs by SRB assay; type: functional
Procedure, shortened: (§1)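 NCI-60 five-dose screen at 100 µM, 10 µM, 1 µM, 100 nM and 10 nM. Incubation 48 h at 37 °C, 5% CO2, 100% humidity. Growth was expressed relative to the no-drug control and to the time-zero cell number, and GI50 was derived from these values.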

[2] = Cytotoxicity against human CLL cells assessed as reduction in cell viability after 24 hrs
[3] = Chemical stability of the compound in 100 mM pH 6 PBS buffer assessed as compound remaining at 10 mM at room temperature after 2 days; details: pH 6, 48 h, 10000 µM
[4] = Chemical stability of the compound in 50% DMSO/PBS buffer assessed as compound remaining at pH 6 in presence of GSH after 48 hrs; details: pH 6, 48 h
[5] = system: SK-OV-3; test: Growth inhibition of human SKOV3 cells after 48 hrs by SRB assay; type: functional; procedure, shortened: as §1
[6] = system: K562; test: Growth inhibition of human K562 cells after 48 hrs by SRB assay; type: functional; procedure, shortened: as §1
[7] = system: RPMI-8226; test: Growth inhibition of human RPMI8226 cells after 48 hrs by SRB assay; type: functional; procedure, shortened: as §1
[8] = system: IGROV-1; test: Growth inhibition of human IGROV1 cells after 48 hrs by SRB assay; type: functional; procedure, shortened: as §1
[9] = Chemical stability of the compound in 100 mM pH 7 PBS buffer assessed as compound remaining at 10 mM at room temperature after 4 days; details: pH 7, 96 h, 10000 µM
[10] = Solubility of the compound in PBS buffer at 10 mM at pH 7.4 by UV-based analysis; type: physicochemical; details: pH 7.4, 10000 µM
Procedure, shortened: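 Compound (10 mM DMSO stock) was diluted into pH 7.4 buffer (ethanolamine/KH2PO4/potassium acetate/KCl) to a final 5% DMSO. After sonication and 18 h agitation the mixture was filtered and scanned by UV at 230-800 nm. Solubility was calculated from calibration plots made in 20% acetonitrile buffer, in quadruplicate, with solubility standards on each plate.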

[11] = Chemical stability of the compound in 100 mM pH 7.4 PBS buffer assessed as compound remaining at 10 mM at room temperature after 2 days; details: pH 7.4, 48 h, 10000 µM
[12] = system: Malme-3M; test: Growth inhibition of human MALME-3M cells after 48 hrs by SRB assay; type: functional; procedure, shortened: as §1
[13] = system: MCF7; test: Growth inhibition of human MCF7 cells after 48 hrs by SRB assay; type: functional; procedure, shortened: as §1
[14] = Chemical stability of the compound in 100 mM pH 6 PBS buffer assessed as compound remaining at 10 mM at room temperature after 4 days; details: pH 6, 96 h, 10000 µM
[15] = system: MOLT-4; test: Growth inhibition of human MOLT4 cells after 48 hrs by SRB assay; type: functional; procedure, shortened: as §1
[16] = system: HOP-92; test: Growth inhibition of human HOP92 cells after 48 hrs by SRB assay; type: functional; procedure, shortened: as §1
[17] = Chemical stability of the compound in 90% DMSO/PBS buffer assessed as compound remaining at pH 6 in presence of GSH
[18] = system: MDA-MB-468; test: Growth inhibition of human MDA-MB-468 cells after 48 hrs by […]
[19] = system: SR; test: Growth inhibition of human SR cells after 48 hrs by SRB assay; type: functional; procedure, shortened: as §1
[20] = Solubility of the compound in 50% DMSO/PBS buffer at 10 mM pH 6 after 3 to 10 days by NMR analysis; details: pH 6, 10000 µM
[21] = system: MDA-MB-468; test: Growth inhibition of human MDA-MB-468 cells after 48 hrs by SRB assay; type: functional; procedure, shortened: as §1
[22] = system: SNB-75; test: Growth inhibition of human SNB75 cells after 48 hrs by SRB assay; type: functional; procedure, shortened: as §1
[23] = system: HT-29; test: Growth inhibition of human HT-29 cells after 48 hrs by SRB assay; type: functional; procedure, shortened: as §1
[24] = Drug level in DMSO-d6/PBS buffer treated with 4-(bis(2-chloroethyl)amino)phenylboronic acid assessed as compound formation after 10 days in presence of GSH by IT-TOF mass analysis; details: 240 h

Question: What does the source list for `OB(O)c1ccc(N(CCCl)CCCl)cc1`?
Answer: GI50 [1]: 3.27 µM; IC50 [2]: 5 to 6 µM; Stability [3]: > 99%; Stability [4]: 96%; GI50 [5]: 3.81 µM; GI50 [6]: 15.8 µM; GI50 [7]: 8.59 µM; GI50 [8]: 18.1 µM; Stability [9]: 99%; solubility [10]: 328 µM (≈ 85.9 µg/mL); Stability [11]: > 99%; GI50 [12]: 19.7 µM; GI50 [13]: 1890 nM; Stability [14]: 99%; GI50 [15]: 2900 nM; GI50 [16]: 10.5 µM; Stability [17]: Stable; IC50 [18]: 16.7 µM; GI50 [19]: 480 nM; solubility [20]: Insoluble; GI50 [21]: 510 nM; GI50 [22]: 3.21 µM; GI50 [23]: 11.9 µM

Question: For `ClCCN(CCCl)c1ccccc1`, which Drug uptake [24] is on record?
Answer: Active
